Data published in patent US7141573B2, “Polypharmacophoric agents” (Molecular Insight Pharmaceuticals, Inc., priority 2000, dated 2006).

Chains of the proteins cited; added tags and fusions are not shown.
UniProt Q01959, whole entry: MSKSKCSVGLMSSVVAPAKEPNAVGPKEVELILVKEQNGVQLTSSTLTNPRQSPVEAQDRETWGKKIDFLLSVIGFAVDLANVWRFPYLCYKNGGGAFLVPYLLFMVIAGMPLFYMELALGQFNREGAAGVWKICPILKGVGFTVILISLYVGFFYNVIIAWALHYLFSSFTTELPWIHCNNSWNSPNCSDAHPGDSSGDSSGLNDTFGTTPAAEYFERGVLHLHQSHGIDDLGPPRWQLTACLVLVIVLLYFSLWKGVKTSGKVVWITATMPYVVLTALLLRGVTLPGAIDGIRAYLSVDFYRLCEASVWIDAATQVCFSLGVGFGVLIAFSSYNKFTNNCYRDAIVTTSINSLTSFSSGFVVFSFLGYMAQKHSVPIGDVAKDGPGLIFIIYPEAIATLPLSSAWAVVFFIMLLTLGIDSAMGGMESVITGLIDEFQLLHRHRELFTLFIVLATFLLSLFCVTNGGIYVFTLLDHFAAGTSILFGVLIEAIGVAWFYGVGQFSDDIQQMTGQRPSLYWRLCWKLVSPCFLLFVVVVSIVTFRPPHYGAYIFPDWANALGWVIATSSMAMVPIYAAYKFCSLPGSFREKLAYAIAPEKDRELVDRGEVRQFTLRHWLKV
UniProt P31645, whole entry: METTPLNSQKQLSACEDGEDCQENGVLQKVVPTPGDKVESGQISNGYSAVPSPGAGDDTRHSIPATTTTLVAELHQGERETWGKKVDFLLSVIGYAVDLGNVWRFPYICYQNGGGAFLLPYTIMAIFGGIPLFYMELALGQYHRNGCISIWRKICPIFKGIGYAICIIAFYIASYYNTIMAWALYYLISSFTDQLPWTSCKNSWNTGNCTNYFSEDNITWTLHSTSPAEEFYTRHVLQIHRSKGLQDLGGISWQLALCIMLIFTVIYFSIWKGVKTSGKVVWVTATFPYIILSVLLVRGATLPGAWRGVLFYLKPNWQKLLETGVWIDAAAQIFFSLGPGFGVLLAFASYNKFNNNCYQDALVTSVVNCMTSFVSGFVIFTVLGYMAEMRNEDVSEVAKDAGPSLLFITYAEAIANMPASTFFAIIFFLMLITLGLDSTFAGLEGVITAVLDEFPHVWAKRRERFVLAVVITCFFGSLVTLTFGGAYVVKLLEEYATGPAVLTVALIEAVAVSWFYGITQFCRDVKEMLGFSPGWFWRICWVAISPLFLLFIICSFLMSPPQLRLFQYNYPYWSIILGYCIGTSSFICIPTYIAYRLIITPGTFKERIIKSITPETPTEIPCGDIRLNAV

Legend:
[1] = molecular target: T1, human dopamine transporter (hDAT) (Homo sapiens, UniProt Q01959); conditions: Table 1; value taken from Eshleman et al., 1999; cited from earlier work
T1 construct: expressed in transfected cells; host or cells: HEK-293 cells stably expressing recombinant hDAT

[2] = molecular target: T1, human dopamine transporter (hDAT); test: [125I]RTI-55 binding to human dopamine transporter in HEK-293 hDAT membranes; conditions: Table II
Protocol: To characterize drug interactions with the human dopamine transporter (hDAT), drugs (approximately 30 nM to 10 μM) were incubated with a membrane preparation from HEK-293 cells stably expressing the recombinant hDAT, [^125I]RTI-55 (34 pM), and buffer in a final volume of 250 μl. Independent assays were conducted 2 to 3 times with duplicate determinations. The Cheng-Prusoff equation was used to convert IC50 values to Ki values.

hSERT = molecular target: T2, hSERT (Homo sapiens, UniProt P31645); test: [125I]RTI-55 binding in HEK hSERT membranes; conditions: Table II
T2 construct: expressed in transfected cells; host or cells: HEK cells expressing hSERT

**Q.** With c1ccc(CCCN2CCN(CCOC(c3ccccc3)c3ccccc3)CC2)cc1 [GBR-12935, reference compound] as the compound, how does the “Hill Coefficient” value [1] read?
**A.** −1.6 ± 0.8

**Q.** And the “[125I]RTI-55 Binding in HEK hDAT Membranes Hill slope” value [2]?
**A.** −0.44 ± 0.09

**Q.** And the “[125I]RTI-55 Binding in HEK hSERT Membranes Hill slope” value (hSERT)?
**A.** −1.47 ± 0.36
